Laboratory results published in patent EP0419081A2, “Method for protein binding enzyme complementation assays” (MICROGENICS CORPORATION, priority 1989, dated 1991).

Test system: EA 22
Settings: ability to form active enzyme with EA in a 15 minute time frame relative to ED4

“m-maleimide-benzoyl-L-Thyroxine-ED₄ conjugate [ED4T4]” was tested, and the “Specific Activity (u/mg) (% ED4-T4) Kinetic” value was 100%.
